# Bioassay records from PubChem.
# Compounds with a hit are over-represented: about 16% of the library has one in this group of screens.
# TDP1 block: inhibitors of human tyrosyl-DNA phosphodiesterase TDP1; Potency, µM (series often up to 130 µM), without a hit: at the top dose activity change, negative = inhibition, actives largely listed as inhibitors; recombinant TDP1, AlphaScreen DNA substrate cleavage; actives 0.28% (n = 350,000); further: potency means the concentration at half of the fitted maximal effect; on the % scale 0 is the no-effect control and ±100 the full control effect; nearly all actives have a fitted effect of over 40% in size
#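 Signal: AlphaScreen proximity between streptavidin donor and anti-FITC acceptor beads on intact substrate. Reaction: Tdp1 1 nM, substrate 15 nM final, 5 min RT after 15 min compound preincubation.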
# uPA surface inh: cell surface uPA generation inhibition | AID 540303 | cell surface uPA generation assay, qHTS | Potency, µM (top dose mostly 38.3 µM), without a hit: at the highest dose activity change, negative = inhibition, hits mostly inhibitors | actives 0.31% (n = 330,000); active means well fitted inhibition curve with a large enough effect; inconclusive means small, poorly fitted or top-dose-only effect; inactive means no such curve, though single readings can be large or run the other way; tested in mouse RAW 264.7 cells; further: potency means the concentration at half of the fitted maximal effect; on the % scale 0 is the no-effect control and ±100 the full control effect; nearly all actives have a fitted effect of over 55% in size
# miR-21 reporter: miR-21 reporter, rising signal | AID 2288 | HeLa miR-21 FLuc reporter, luciferase, 48 h | 340,000 tested, under 10 active | Potency, µM (doses to about 38.3 µM), for inactives: at the top dose reporter change, positive = more light; active = well fitted rising curve with a large enough effect; inconclusive = small, poorly fitted or top-dose-only effect; inactive = no such curve, though single readings can be large or run the other way;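 note: % of control where 0% means no effect; miR-21 action dims this reporter so a rising signal means less miR-21 action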
#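 HeLa cells endogenously expressing miR-21, stably carrying CMV-driven firefly luciferase with a downstream miR-21 binding site, 2000 cells/well. Titrations up to approximately 40 uM, 48 hours; luciferase luminescence read.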
# DT40 TDP1 CPT: DT40-hTDP1 cell growth loss with CPT; chicken DT40 Tdp1-/-;hTDP1 cells + 20 nM CPT, ATP luminescence, 48 h; Potency, µM (top dose mostly 46.2 µM), for the others: at the highest dose activity change, negative = growth inhibition, actives largely listed as inhibitors; actives 12% (n = 420,000); AID 686979; further: potency means the concentration at half of the fitted maximal effect; on the % scale 0 is the no-effect control and ±100 the full control effect; nearly all actives have a fitted effect of over 55% in size
#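 Chicken DT40 Tdp1-/- cells stably complemented with human TDP1 were seeded at 400 cells/well in medium containing 20 nM camptothecin, exposed to pin-transferred compounds, and grown at 37 °C for at least 48 hr. Viability was read as ATP luminescence.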
# DT40 TDP1 no CPT: qHTS for Inhibitors of human tyrosyl-DNA phosphodiesterase 1 (TDP1): qHTS in cells in absence of CPT. DT40 Tdp1-/- hTDP1 cells, no CPT, ATP luminescence, 48 h. Potency, µM (titrated, usually from 46.2 µM), for inactives: top-dose activity change, negative = growth inhibition, actives largely listed as inhibitors. actives 15% (n = 420,000); further: potency means the concentration at half of the fitted maximal effect; on the % scale 0 is the no-effect control and ±100 the full control effect; nearly all actives have a fitted effect of over 55% in size
#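 Chicken DT40 Tdp1-/- cells stably complemented with human TDP1 were seeded at 400 cells/well with DMSO in place of 20 nM camptothecin. After compound pinning, cells grew at least 48 hr at 37 °C; viability read by CellTiter-Glo luminescence.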
# An asterisk follows results filed as active; ? = inconclusive; · = no result given; [ ] = another dose, or the depositor's remark. Unless noted, the call rests on the fitted dose curve; in most records, active means well fitted curve in the direction sought with a large enough effect; inconclusive means small, poorly fitted or top-dose-only effect, or another doubt; inactive means no such curve, though single readings can be large; an effect the other way counts as inactive or inconclusive.
# Codes: A = TDP1 block; B = uPA surface inh; C = miR-21 reporter; D = DT40 TDP1 CPT; E = DT40 TDP1 no CPT
smiles: O=C(Nc1cccc(C(F)(F)F)c1)NC1CCCCC1
  A: -3% | B: -4% | C: -2% | D: 23µM* | E: ?

smiles: COc1ccc(NC(=O)Nc2nnc(N3CCCCCC3)s2)c(OC)c1
  A: 11% | B: · | C: -1% | D: ? | E: 18µM*

smiles: CC(=O)c1ccc(N2CCN(C(=O)c3noc4c3CSc3ccccc3-4)CC2)cc1
  A: 1% | B: 1% | C: -8% | D: ? | E: ?

smiles: COc1ccc(NC(=O)C[C@@H]2C(=O)N(Cc3ccccc3)CC2(C)C)cc1
  A: · | B: · | C: · | D: -26% | E: 21µM*

smiles: CC1(C)CN(Cc2ccccc2)C(=O)[C@H]1CC(=O)Nc1ccc(Br)cc1
  A: · | B: · | C: · | D: ? | E: 13µM*

smiles: CC1(C)CN(Cc2ccccc2)C(=O)[C@H]1CC(=O)Nc1ccccc1
  A: · | B: · | C: · | D: -3% | E: ?

smiles: COC(c1ccccc1)c1nnc(CCC(=O)N(C)CCc2ccccc2)o1 (stereo not drawn)
  A: -3% | B: 5% | C: -6% | D: -8% | E: ?

smiles: O=C(Nc1ccc(-c2nnn(CC(=O)N3CCN(C(=O)c4ccco4)CC3)n2)cc1)c1ccccc1F
  A: -1% | B: · | C: -24% | D: · | E: ·

smiles: CN(C)CCC(=O)C(Cc1ccccc1)c1ccccc1 (stereo not drawn)
  A: · | B: -13% | C: · | D: 5.2µM* | E: 4.6µM*

smiles: CN(C)CCNC(=O)C(c1ccccc1)c1ccccc1
  A: · | B: 3% | C: 4% | D: -5% | E: -23%

smiles: COc1ccc(CCNCCC(c2ccccc2)c2ccccc2)cc1OC
  A: · | B: · | C: · | D: 18µM* | E: 18µM*

smiles: COc1ccccc1NCC(O)Cn1c2ccccc2c2ccccc21 (stereo not drawn)
  A: 12% | B: -5% | C: 0% | D: ? | E: ?

smiles: COc1ccc(CCNCC(O)Cn2c3ccccc3c3ccccc32)cc1OC (stereo not drawn)
  A: 5% | B: ? | C: ? | D: 13µM* | E: 12µM*

smiles: COc1ccc(C(CCNCc2ccc(OC)c(OC)c2)c2ccc(F)cc2)cc1 (stereo not drawn)
  A: · | B: 2% | C: 24% | D: 4% | E: -7%

smiles: COc1cc(OC)c(OC)cc1CCC(C)NCCC(c1ccccc1)c1ccccc1 (stereo not drawn)
  A: · | B: -6% | C: 24% | D: 6.5µM* | E: 5.8µM*

smiles: COc1ccc(CCNC(=O)CC(c2ccccc2)c2cccc(C)c2O)cc1OC (stereo not drawn)
  A: 2% | B: -13% | C: 28% | D: 12µM* | E: 9.2µM*

smiles: CC(C)CN(C(=O)CN1CCC(C)CC1)c1c(N)n(CC(C)C)c(=O)[nH]c1=O
  A: -1% | B: 39% | C: -12% | D: 7% | E: 15%

smiles: Cc1cc(NC(=O)Cc2ccccc2)no1
  A: 8% | B: -3% | C: -11% | D: -20% | E: -12%

smiles: CCC(C(N)=NCCc1ccc(OC)c(OC)c1)c1ccccc1 (stereo not drawn)
  A: · | B: 8% | C: 5% | D: 15µM* | E: 8.2µM*

smiles: COc1ccc(CCN=C(N)C(C)c2ccccc2)cc1OC (stereo not drawn)
  A: 3% | B: 0% | C: -1% | D: -17% | E: ?

# Pulled by structure from the entries so far, 4 records:
# Codes: A = TDP1 block; B = uPA surface inh; C = miR-21 reporter; D = DT40 TDP1 CPT; E = DT40 TDP1 no CPT
smiles: COc1cc(OC)c(OC)cc1CCC(C)NCCC(c1ccccc1)c1ccccc1 (stereo not drawn)
  A: · | B: -6% | C: 24% | D: 6.5µM* | E: 5.8µM*

smiles: COc1ccc(CCNCC(O)Cn2c3ccccc3c3ccccc32)cc1OC (stereo not drawn)
  A: 5% | B: ? | C: ? | D: 13µM* | E: 12µM*

smiles: Cc1cc(NC(=O)Cc2ccccc2)no1
  A: 8% | B: -3% | C: -11% | D: -20% | E: -12%

smiles: COc1ccc(CCNCCC(c2ccccc2)c2ccccc2)cc1OC
  A: · | B: · | C: · | D: 18µM* | E: 18µM*

# Further results:
# Codes: A = TDP1 block; B = uPA surface inh; C = miR-21 reporter; D = DT40 TDP1 CPT; E = DT40 TDP1 no CPT
smiles: CCOc1ccc2nc(NC(=O)c3ccco3)sc2c1
  A: -20% | B: -12% | C: -2% | D: ? | E: ?

smiles: Cc1cccc2cc(/C=C/C(=O)c3ccco3)c(Cl)nc12
  A: -1% | B: -1% | C: 1% | D: 4.6µM* | E: 8.2µM*

smiles: CCOc1ccc2nc(Cl)c(/C=C/C(=O)c3ccco3)cc2c1
  A: 7% | B: 2% | C: -6% | D: 10µM* | E: 15µM*

smiles: CCn1c(=O)c(=O)n(CC)c2cc(N3CCCCC3)c(NC(=O)c3cccc(OC)c3)cc21
  A: 5% | B: · | C: 0% | D: -1% | E: -24%

smiles: CCn1c(=O)n(CC)c2cc(N3CCCC3)c(NC(=O)c3ccccc3OC)cc21
  A: 7% | B: 4% | C: 8% | D: 6.5µM* | E: 5.8µM*

smiles: CCn1c(=O)n(CC)c2cc(N3CCCC3)c(NC(=O)c3ccc(OC)c(Br)c3)cc21
  A: 12% | B: -5% | C: -1% | D: 16µM* | E: 12µM*

smiles: CCOc1ccccc1C(=O)Nc1cc2c(cc1N1CCCC1)n(CC)c(=O)n2CC
  A: 15% | B: -11% | C: 20% | D: 4.6µM* | E: 4.6µM*

smiles: CCOc1ccccc1C(=O)Nc1cc2c(cc1N1CCOCC1)n(C)c(=O)n2C
  A: 5% | B: · | C: -24% | D: 15µM* | E: 16µM*

smiles: CC1(C)Oc2ccc3ccc(=O)oc3c2/C(=C/NC2CCCCC2)C1=O
  A: 8% | B: 1% | C: -6% | D: ? | E: ?

smiles: CN(NC1CC(=O)N(c2ccccc2)C1=O)c1ccccc1 (stereo not drawn)
  A: 3% | B: -2% | C: -36% | D: ? | E: ?

smiles: CCn1c(=O)n(CC)c2cc(N3CCCC3)c(NC(=O)c3cc(Cl)ccc3OC)cc21
  A: 14% | B: -6% | C: 2% | D: 16µM* | E: 21µM*

smiles: COc1ccccc1N1CCN(CCCNC(=O)c2cnn(-c3cccc(Cl)c3)c2C2CCN(C(=O)OC(C)(C)C)CC2)CC1
  A: 7% | B: · | C: 25% | D: 9.2µM* | E: 7.3µM*

smiles: Cc1ccc(C)c(N2CCN(CCCNC(=O)c3cnn(-c4ccccc4)c3C3CCN(C(=O)OC(C)(C)C)CC3)CC2)c1
  A: 2% | B: · | C: 3% | D: 6.5µM* | E: 4.6µM*

smiles: CC(NC(=O)NC(=O)c1ccc(Cl)cc1Cl)C1CC1 (stereo not drawn)
  A: 4% | B: -6% | C: -41% | D: -9% | E: -33%

smiles: c1ccc(Cn2ncc3c(Nc4ccccc4)ncnc32)cc1
  A: 9% | B: -17% | C: -8% | D: ? | E: -27%

smiles: Brc1ccc(/C=N/Nc2ncnc3c2cnn3Cc2ccccc2)cc1
  A: 6% | B: 3% | C: 0% | D: 18µM* | E: 15µM*

smiles: Cc1ccc(-n2ncc3c2CCCC3NC(=O)c2ccoc2)cc1C (stereo not drawn)
  A: 4% | B: 19% | C: 4% | D: ? | E: ?

smiles: COCc1ccc(C(=O)NC2CCCc3c2cnn3-c2cc(C)cc(C)c2)s1 (stereo not drawn)
  A: · | B: -5% | C: 7% | D: ? | E: 21µM*

smiles: COCc1ccc(C(=O)NC2CCCc3c2cnn3-c2ccc(C)c(C)c2)o1 (stereo not drawn)
  A: 4%[56.1 µM] | B: 13% | C: 16% | D: 18µM* | E: ?

smiles: Cc1cc(C)cc(-n2ncc3c2CCCC3NC(=O)c2cc(C)oc2C)c1 (stereo not drawn)
  A: 7% | B: -8% | C: -2% | D: ? | E: 23µM*

smiles: Cc1ccc(C(=O)N(CC(=O)NC2CCCC2)c2ccc3c(c2)OCCO3)s1
  A: 3% | B: 4% | C: 4% | D: ? | E: ?

smiles: O=C1NC2(CCCCC2)N=C1c1ccc(Br)cc1
  A: 7% | B: 1% | C: -16% | D: -17% | E: -12%

smiles: Cc1ccc(C(c2cccc(Br)c2)c2c(C)[nH]c3ccccc23)s1 (stereo not drawn)
  A: 6% | B: · | C: 6% | D: -68% | E: -81%

smiles: Cc1c(C(=O)NCC2COc3ccccc3O2)oc2ccc(S(=O)(=O)N(C)C3CCCCC3)cc12 (stereo not drawn)
  A: 5% | B: 4% | C: 19% | D: ? | E: 15µM*

smiles: Cc1ccc(NC(=O)c2oc3ccc(S(=O)(=O)N(C)C4CCCCC4)cc3c2C)cc1Cl
  A: 0% | B: · | C: 1% | D: ? | E: ?
